# Earlier results in patent publication US20210290606A1, “METHOD TO PREVENT AND TREAT OSTEOARTHRITIS BY CALCIUM CHANNEL BLOCKERS, ANGIOTENSIN CONVERTING ENZYME INHIBITORS, AND ANGIOTENSIN RECEPTOR BLOCKERS” (priority 2018, published 2021).
# Test system: osteoarthritis
# Settings: 2016 meta-analysis of 22 clinical trials, 8275 patients, after one year; cited from earlier work
compound,measurement,value
CN1CC[C@]23c4c5ccc(O)c4O[C@H]2C(=O)CC[C@H]3[C@H]1C5 [hydromorphone],clinical difference between the high potency narcotics and tramadol,no clinically observable difference
